Test system: Primary human osteoblasts
Test: 3H-thymidine incorporation, proliferative response of human osteoblasts
Type: cell-based
Details: Table 2 (Example 2); BMP-2 10 ng/ml
Experimental: The effect of the peptide (CGGGRWCG, Cys-Gly-Gly-Gly-Arg-Trp-Cys-Gly (SEQ. ID NO: 1)) on the stimulation of osteoblast proliferation was assessed in a short-term assay via measurement of the amount of the nucleotide thymidine that was incorporated into newly synthesized DNA.
Primary human osteoblasts were trypsinized and cell counts determined. Cells were resuspended at a concentration of 0.5×10^5 cells/ml in growth medium [Dulbeccos Modified Eagles Medium (DMEM) 10% Fetal Bovine Serum (FBS), 100 units Penicillin and 50 μg/ml Streptomycin]. A 100 μl aliquot of cells was added to each well in a 96 well dish. Cells were allowed to adhere for 24 hours and then refed with DMEM containing 0.5% FBS for 24 hours. Thereafter, several concentrations (10, 100, 500 μg/ml final concentration) of peptide in DMEM containing 0.5% FBS were added to different wells in quadruplicate. These plates were incubated in a cell culture incubator at 37° C. 5% CO2 for 48 hours. […] Cells were lysed and the lysate was placed in scintillation fluid and the amount of thymidine incorporated was determined by beta counting (in Counts Per Minute, or CPM). […]
Experiments were performed comparing the stimulatory effect of the CGGGRWCG peptide (SEQ. ID NO: 1) to BMP-2. The experiments were set up as described for Example 1, with proliferation assessed by measurement of thymidine incorporation into newly synthesized DNA. […]

B1: BMP-2: bone morphogenic protein used as comparator for osteoblast proliferation (protein, UniProt P12643 283-396, looked up)
Bone morphogenetic protein 2: QAKHKQRKRLKSSCKRHPLYVDFSDVGWNDWIVAPPGYHAFYCHGECPFPLADHLNSTNHAIVQTLVNSVNSKIPKACCVPTELSAISMLYLDENEKVVLKNYQDMVVEGCGCR
- 3H-Thymidine Incorporation Into Osteoblasts: 4232 +/− 155 CPM
